Among the data in patent US4113856A, “Antibiotic mm 13902” (Beecham Group Limited, priority 1974, dated 1978) are I50 values, retold here.

This test concerns β-lactamase enzyme of Escherichia coli B11. The format is biochemical. To be noted: sodium salt, substantially pure. The source says: This β-lactamase is classified as a type IIIa enzyme according to the classification of Richmond and Sykes [Adv. in Microbiol.Physiol. 9 31 (1973)]
The rate of β-lactamase hydrolysis of ampicillin to its penicilloic acid can be followed by a starch-iodometric assay in which one measures the rate of formation of penicilloic acid by following the decolorization of a starch-iodine complex. This method and the preparation of the β-lactamase are described in a paper by Cole M., Elson S., and Fullbrook P. D. (Biochemical Journal 1972, 127, 295-308). […] The procedure was as follows:
Buffer: 0.05M pH7 potassium phosphate buffer
Prepared from E.coli B11 as described by Cole
Enzyme: et al, Biochem. J.(1972) 127, 295. The dilution
The reactions were carried out in 1cm cuvettes at 37° C. in an SP 800 Pye Unicam spectrophotometer. This instrument can carry four sample cuvettes and their corresponding blanks. The first cuvette was used for the control reaction and contained no inhibitor. The 2nd, 3rd and 4th cuvettes were used for various dilutions of the inhibitor. Thus:
The reactions were followed by recording optical density change at 590 nm. and measuring the velocity of the reaction as optical density change per 100 secs. during the 3-6 minute time interval. The inhibitor sample was diluted until a dilution was reached which gave 50% of the rate of reaction seen in the no-inhibitor control.

With `CC(=O)N/C=C/[S+]([O-])C1=C(C(=O)O)N2C(=O)C(C(C)OS(=O)(=O)O)C2C1` (stereo not shown) [MM 4550A], the I50 entry is recorded as “less than 0.0001 μg/ml”.
